# The list shows a part of the results, in another mix than the full data. Some results for these compounds are left out of this collection, so the calls shown say nothing about other tests. Calls of active or inactive are those of the source. No stated cut-off is given here; in the data, active means inhibition mostly above about 56% (no sharp cut-off); inactive means mostly below about 77%.
# Chains of the proteins cited; added tags and fusions are not shown.
# UniProt P9WFX0, whole entry: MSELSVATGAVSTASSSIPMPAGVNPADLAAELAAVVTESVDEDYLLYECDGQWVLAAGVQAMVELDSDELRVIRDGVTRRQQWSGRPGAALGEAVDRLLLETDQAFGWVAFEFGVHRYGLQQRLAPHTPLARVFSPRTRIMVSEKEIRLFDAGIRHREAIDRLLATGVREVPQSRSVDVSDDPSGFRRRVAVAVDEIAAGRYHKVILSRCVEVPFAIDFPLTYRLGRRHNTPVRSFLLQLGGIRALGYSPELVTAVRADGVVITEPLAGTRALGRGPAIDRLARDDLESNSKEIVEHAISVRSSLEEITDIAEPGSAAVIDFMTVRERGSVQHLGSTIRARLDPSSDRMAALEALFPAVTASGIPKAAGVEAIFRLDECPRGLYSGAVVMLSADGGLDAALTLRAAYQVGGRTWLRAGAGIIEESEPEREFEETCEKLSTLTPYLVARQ
# Biological target: Salicylate synthase (Mycobacterium tuberculosis (strain CDC 1551 / Oshkosh)) (UniProt P9WFX0)
# Assay: inhibitors of M. tuberculosis MbtI – biochemical, fluorescence intensity, primary screen (AID 493033)
# Conditions: purified MbtI enzyme, fluorescence intensity read-out; hits give high values; concentration not given here
row,Structure (SMILES),inhibition
1,CN(C)C1(CNC(=O)c2ccncc2)CCCCC1,inactive: 7.6%
2,N#CC(C#N)=Cc1ccccc1,inactive: -3.2%
3,O=C(NCC1(N2CCCCC2)CCCCC1)c1ccc2c(c1)OCCO2,inactive: 140%
4,CN1C2CCC1CC(OC(=O)C(O)(c1ccccc1)c1ccccc1)C2 (configuration not stated),inactive: -11.1%
5,O=C(NCC1(N2CCOCC2)CCCCC1)c1cnc(Cl)c(Cl)c1,inactive: -2.7%
6,COc1ccc(OC)c(C=C(C#N)C#N)c1,inactive: -14.9%
7,CN(C)c1ccc(C(=O)NCC2(N(C)C)CCCCC2)cc1,inactive: 10.8%
